## Binding of CDR-mutated scFvs to a peptide of the spike HR2 region

From the AlphaSeq antibody data of Li et al. 2023 (doi:10.1038/s41467-023-39022-2), copy in the FLAb collection.

Antigen: PDVDLGDISGINAS, a 14-residue peptide of the SARS-CoV-2 spike HR2 region.

Parent scFv Ab-14: VH joined to VL by a (GGGGS)3 linker. Changes lie in the heavy chain CDRs alone.
VH: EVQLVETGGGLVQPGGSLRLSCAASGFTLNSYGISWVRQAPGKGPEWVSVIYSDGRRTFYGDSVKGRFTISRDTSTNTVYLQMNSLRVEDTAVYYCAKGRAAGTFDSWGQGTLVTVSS
VL: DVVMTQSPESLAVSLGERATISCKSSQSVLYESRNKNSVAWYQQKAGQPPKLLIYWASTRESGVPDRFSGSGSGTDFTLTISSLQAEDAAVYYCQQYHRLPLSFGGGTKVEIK

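The starting antibody came from a phage panning campaign against this peptide. Designed CDR sequences, proposed from the first random library and measured here. Several design methods are mixed in this list. In AlphaSeq, yeast of one mating type display the scFv and yeast of the other type display the target. The frequency of each diploid, read from paired DNA barcodes, reflects how well the two displayed proteins bind. Each replicate has its own calibration line, from reference interactions of the BCL2 family. The assay was run in six technical replicates.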

Variants are written as CDR1, CDR2 and CDR3 of the heavy chain (limits as in the source). Parent: GFTLNSYGIS, VIYSDGRRTFYGDSVK, GRAAGTFDS. Numbers give log10(Kd / nM), so 0 is 1 nM and 3 is 1 µM. Smaller is tighter. Replicates are averaged; those with no signal do not enter the mean. An entry "nd" has no value in the source: the pair was not observed among the diploids in any replicate. This suggests poor binding but is not conclusive. Of ten entries with the parent sequence, four were seen in most replicates (averages 0.34 to 2.37), three in one and three in none, so single entries are noisy. The authors' rule: three or more of the six replicates give a measured affinity, fewer mean a poor binder. Values of this round are not directly comparable with the first-round values of the same sequences. As a blank, each scFv also met three strains without target: over all heavy chain designs, 1% of these pairings were detected, typically at 2.08 and seldom below 0.84.

| CDR-H1 | CDR-H2 | CDR-H3 | mean log10 Kd (nM) | seen in |
|---|---|---|---|---|
| GFTLKEYGIS | VIYSDGRRTFYGDSVK | GRAAGTFDQ | 1.59 | 1/6 |
| GFTLNDYGIS | VIYSDGRRTFYGDSVK | GGAAGTFDS | 1.12 | 6/6 |
| GFTLNDYGIS | VIYSDGRRMIYIDSVK | GRAAGTFDS | 1.28 | 1/6 |
| GFTLNEYVIS | VAYSDGRRTFYTDSVK | GRFAGTFDS | nd | 0/6 |
| GFSLNSYGIS | VIYSDGRRTFYGDSVK | GEAAGTFDK | 0.54 | 6/6 |
| GQDLMEYGIS | VIYADGTRTMYTDDVK | GEFGDQGKT | nd | 0/6 |
| YFTLNEYGIS | VIYSDGRRTFYSDSVK | GRAAGTFTS | nd | 0/6 |
| GFDLNEYGIS | VIYADGVRTFYADSVK | GEHAGTFDI | 0.25 | 6/6 |
| GFTLSSYGIS | VIYSDGYRTFYGDSVK | RREAAAFDS | nd | 0/6 |
| GFDLNEYGIS | VIYADGMRTFYSDSVK | GENAGFFDS | -0.14 | 6/6 |
| GFTLNEYGIS | VIYSDGRRTFYGDSVK | GRVAGTFDD | -0.26 | 6/6 |
| GFDLNEYGIS | VIYADGKRTAYADDVK | GNNAGTFDM | -0.29 | 6/6 |
| GFMLNSKGIS | VIYADSRRTFYGDSVK | GRAAGTNTS | nd | 0/6 |
| GLDLNSYGIS | VIYMDGRRTFYGDSVK | GRNAGTFDS | nd | 0/6 |
| GFSLNSYGIS | VIYSDGRRTFYTDSVK | GKEAGTFDS | nd | 0/6 |
| GFTLNIYGIS | VIYSKGRRTFYGDSVK | GRAALTFIS | nd | 0/6 |
| GFTLNSYGIS | VIYSDGRRTFYGDDVK | GRVAGTFDS | 1.23 | 6/6 |
| GEDLMEYGIS | VIYADGKRFSYIDDVK | GYSTGFLDV | nd | 0/6 |
| GFDLNEYGIS | VIYADGMRTYYADSVK | GEVAGTFDI | -0.20 | 6/6 |
| GFGLNSYGIS | VIYSDGRRTFYADSVK | GWTAGTFDS | 0.42 | 5/6 |
| GFDLNEYGIS | VIYADGKRTFYADSVK | GENAGTFDM | -0.51 | 6/6 |
| GFDLNEYGIS | VIYADGMRTAYVDSVK | GNQAGTFDI | -0.56 | 6/6 |
| GFNLNSYGIS | VIYSDGRRTFYGDSVK | GRTADTFSS | nd | 0/6 |
| GFDLNEYGIS | VIYADGRRTQYIDSVK | GEAAGTFDL | 0.78 | 4/6 |
| GFDLNEYGIS | VIYADGRRTAYADSVK | GEAAGTFFS | 0.54 | 6/6 |
| GFNLEEYGIS | VIYADGKRTQYSENVK | GHIGNVRVV | nd | 0/6 |
| GFQLDEYGIS | VIYADGKRTFYQDSVK | GEVAGTFDS | -0.38 | 6/6 |
| GFDLNEYGIS | VIYADGMRSAYADSVK | GENAGTFDL | -0.13 | 6/6 |
| GFDLNEYGIS | VIYADGRRTQYIDSVK | GNEAGTFDL | -0.14 | 6/6 |
| KFSLNSYGIS | VIYSDGRRTFYSDSVK | GEAAGTFDS | 1.24 | 6/6 |
| GFTLNEYGIS | VIYSDGRRTFYSDAVK | GNAAGEFDS | 1.68 | 6/6 |
| GFDLNEYGIS | VIYADGRRTFYIDSVK | GNEAGTFDV | -0.32 | 6/6 |
| MFSLNSYGIS | VIYSDGRRTFYGDSVK | GQEAGTFDT | nd | 0/6 |
| GFTLNSYGIS | VIYSDGRRTFGDDSVK | GQFAGKFDS | nd | 0/6 |
| GFNLEEYGIS | VIYADGFRASYQQKVK | GQDGLVGMD | nd | 0/6 |
| GFTLNQYGIS | VIYSDGRRTFYSDSVK | GRAAVTFDT | nd | 0/6 |
| GFQLNEYGIS | VIYSDGRRTFYKDSVK | GRAAGTFDS | 0.41 | 6/6 |
| GFDLNEYGIS | VIYADGMRTAYADDVK | GQNAGTFDL | -0.49 | 6/6 |
| GFTLEMYGIS | VIYSDGRRTFYGDSVK | GRAAGTFDS | 2.48 | 1/6 |
| GFDLNEYGIS | VIYADGRRTFYDDSVK | GNLAGTFDQ | -0.66 | 6/6 |
| GFELNEYGIS | VIYSDGRRTFMGDSVK | GRTAGTFDS | 0.50 | 6/6 |
| GFDLNSYGIS | VIYSDGRRTFYVDSVK | GQAAGTFDV | 1.08 | 6/6 |
| GFTLNSYGIS | VIYSDGRRTFYQDQVK | GRAAGTFDS | nd | 0/6 |
| GFNLDEYGIS | VIYADGRRTAYAESVK | NSNMSGMVT | -1.09 | 6/6 |
| GFNLNEYGIS | VIYADGRRTFYADSVK | GSQAGTFDM | -0.14 | 6/6 |
| GFTLNDYGIS | VIYSDGRRTFYGDSVK | GRTAGTFDI | 0.18 | 6/6 |
| GFDLNEYGIS | VIYADGQRTAYVDSVK | GNVAGTFDT | -0.52 | 6/6 |
| GFTLNSYGIS | VIYSDGRRTAYGDSVK | GIAAGTFDS | nd | 0/6 |
| HFSLNSYGIS | VIYSDGRRTFYADSVK | GRAAGTFDS | 1.56 | 6/6 |
| GFELNSYGIS | VIYSDGQRTFYVDSVK | GKTAGTFDS | nd | 0/6 |
| GFDLEDYGIS | VIYADGRRTAYADSVK | GEQAGTFDV | -0.14 | 6/6 |
| GFTLDSYGIS | VIYSDGRRTFYGDSDK | GRAAGYALS | nd | 0/6 |
| GFSLNSYGIS | VIYSDGRRTFYADSVK | GRAAGKFDS | nd | 0/6 |
| GFDLNSYGIS | VIYSDGRRTFYGDSVK | GRAAGWFNG | nd | 0/6 |
| GFTLDKYGIS | VIYSDGRETFYGDSVK | GRAARTALS | nd | 0/6 |
| GFDLNEYGIS | VIYADGKRTAYVDSVK | GNVAGTFDT | -0.57 | 6/6 |
| GGTLNDYGIS | VIYSDGWRTFYSDSVK | GRAAGTFDS | 2.29 | 1/6 |
| GFTLNEYGIS | VIYSDGRRPFYTNSVK | GRFAGTFDS | nd | 0/6 |
| GFTLNSYGIS | VIYSDGCRTFYGDSVK | GKAAGTFDS | nd | 0/6 |

The last 5 entries again:

CDR-H1	CDR-H2	CDR-H3	mean log10 Kd (nM)	seen in
GFTLDKYGIS	VIYSDGRETFYGDSVK	GRAARTALS	nd	0/6
GFDLNEYGIS	VIYADGKRTAYVDSVK	GNVAGTFDT	-0.57	6/6
GGTLNDYGIS	VIYSDGWRTFYSDSVK	GRAAGTFDS	2.29	1/6
GFTLNEYGIS	VIYSDGRRPFYTNSVK	GRFAGTFDS	nd	0/6
GFTLNSYGIS	VIYSDGCRTFYGDSVK	GKAAGTFDS	nd	0/6